In publication PMC5570423, “Structural characterisation of TNRC6A nuclear localisation signal in complex with importin-alpha” (PLoS ONE, 2017):

Target: GST-SV40 TAg cNLS (SV40)
Assay: ELISA; solid phase plate binding assay, no cross-linking: MaxiSorp plates coated with 25 nM GST-cNLS or GST in PBS, 0.2 mM PMSF, 2 mM DTT; serial dilutions of S-tagged mImpα1ΔIBB, 1 hr at 4°C; detected with S-protein-HRP; apparent Kd, one-site specific binding, duplicates

In the case of “Mouse importin-α1 lacking the IBB domain (mImpα1ΔIBB; residues 70–529) (from UniProt P52293 70-529) (domain or fragment)”, the Kd is reported as 12.5 nM.
